Assay results from ChEMBL document CHEMBL1833945, “Synthesis and anticonvulsant activity of new N-Mannich bases derived from 5-cyclopropyl-5-phenyl- and 5-cyclopropyl-5-(4-chlorophenyl)-imidazolidine-2,4-diones” (Bioorg Med Chem, 2011).

Species on record: Mus musculus
Assay: Protective index, ratio of TD50 for neurotoxicity in CF1 albino mouse to ED50 for inhibition of 6Hz electric shock-induced seizures in CF1 albino mouse
Type: functional

With `CC[C@@H](C(N)=O)N1CCCC1=O` [LEVETIRACETAM] the PI was >26.
